Measurements taken from patent EP2890687B1, “SALTS OF BENZOTHIAZOLONE COMPOUND AS BETA-2-ADRENOCEPTOR AGONIST” (priority 2012, dated 2014).

Columns and labels:
Human skMC = experiment: cAMP response in primary human skeletal muscle cells (differentiated skeletal myotubes); settings: read-out: Primary cells
Rat skMC = experiment: cAMP response in primary rat skeletal muscle cells; settings: read-out: Primary cells, differentiated skeletal myotubes
Rat cardiomyocytes = experiment: cAMP response in primary rat cardiomyocytes; settings: read-out: Primary cells

With `COc1ccc(CC(C)NCC(O)c2ccc(O)c(NC=O)c2)cc1` (stereo not drawn) the pEC50 (Human skMC) was 9.70, the pEC50 (Rat skMC) was 9.05 and the pEC50 (Rat cardiomyocytes) was 8.54.

pEC50: −log10 of the molar value.
